Consider 1 substance from PMC12076188 (Cancer Research Communications, 2025).

In the experiment the test system is CR6256 PDX tumors rebounding after sotorasib treatment. The experiment can be described thus: PDX study on tumors regrown under sotorasib. As to conditions: after 63 days of 100 mg/kg sotorasib; then 100 mg/kg sotorasib, 100 mg/kg glecirasib, 50 mg/kg cetuximab or combination. Type of experiment: in vivo, mice.

As to “Cetuximab: EGFR-targeted mAb produced by Merck Healthcare KGaA”, the “tumor response of rebound tumors” value was “exhibited resistance”.
